Values joined by “and” are separate entries in the source; they are usually repeats but may differ in a detail not shown here. Identical values can stand only once.
Legend:
[1] = Ex vivo permeation of nicotine through rat skin in Franz-type diffusion cells, with or without LMWP/HMWP film; conditions: untreated (control) rat skin
[2] = Solubility of nitrofurazone in the receptor phase; conditions: distilled water, acetonitrile and triethylamine buffer (79:20:1)
[3] = Ex vivo permeation of nitrofurazone through rat skin in Franz-type diffusion cells, with or without LMWP/HMWP film; conditions: untreated (control) rat skin
[4] = Ex vivo permeation of nitroglycerin through rat skin in Franz-type diffusion cells, with or without LMWP/HMWP film; conditions: untreated (control) rat skin
[5] = nitrofurazone 200 μg/ml aqueous donor

Question: With `CN1CCCC1c1cccnc1` (stereo not shown) as the molecule, how does the Flux ([1]; nicotine 500 μg/ml aqueous donor, 32° C.) read?
Answer: 40.00±6.97 μg/cm^2/hr

Question: And the “Q10: cumulative amount of nicotine permeated within 10 hrs” value ([1]; nicotine 500 μg/ml)?
Answer: 319.82 ± 52.64 g/cm^2

Question: And the “kp: permeability coefficient” value ([1]; nicotine 500 μg/ml)?
Answer: 8.00 ± 1.39 cm/hr * 10^2

Question: Which results are given for `NC(=O)N/N=C/c1ccc([N+](=O)[O-])o1`?
Answer: Solubility of nitrofurazone in receptor phase [2]: 668 µg/mL; Flux ([3]; nitrofurazone 100 μg/ml aqueous solution): 5.11±1.39 μg/cm^2/hr; Flux [3, 5]: 11.4±1.6 μg/cm^2/hr and 11.44±1.62 μg/cm^2/hr; Lag-time [3, 5]: 3.5 ± 0.4 h and 3.53 ± 0.45 h; Q24: cumulative amount of nitrofurazone permeated after 24 hr [3, 5]: 205.41 ± 28.02 μg/cm^2; Lag time ([3]; nitrofurazone 100 g/ml (so in the source)): 4.17 ± 0.62 h; Flux ([3]; saturated nitrofurazone aqueous solution): 18.24±1.51 μg/cm^2/hr; Lag time ([3]; saturated nitrofurazone): 1.44 ± 0.56 h

Question: Which Flux ([4]; nitroglycerin 200 μg/ml aqueous donor) does the source give for `O=[N+]([O-])OCC(CO[N+](=O)[O-])O[N+](=O)[O-]` here?
Answer: 21.42 ± 5.77 μg/cm^2/hr

Question: What about the “Q10: cumulative amount of nitroglycerin permeated within 10 hrs” value ([4]; nitroglycerin 200 μg/ml) of the same molecule?
Answer: 110.20 ± 18.47 μg/cm^2

From patent US9011830B2, “Poly(CPP-SA) anhydride as a reactive barrier matrix against percutaneous absorption of toxic chemicals” (dated 2015)
